Test system: HBV
Assay: Anti-HBV test in infected HepAD38 cells (intracellular viral DNA by Q-PCR)
Format: cell-based
Method: These are hepatoma cells that have been stably transfected with a cDNA copy of the pregenomic RNA of wild-type virus. Withdrawal of tetracycline from the culture medium results in the initiation of viral replication. This offers the advantage, in contrast to the Hep G2.2.15 cell lines commonly used, that there is no, or very limited background viral DNA synthesis. Cells were cultured at 37° C. in a humidified 5% CO2/air atmosphere in seeding medium, DMEM/Ham's F12 (50/50) supplemented with 10% (v/v) heat-inactivated fetal calf serum, 100 IU/ml penicillin, 50 μg/ml streptomycin, 100 Ξg/ml kanamycin, 400 μg/ml G418, and 0.3 μg/ml tetracycline. […] After 2-3 days the cultures were induced for viral production by washing with prewarmed PBS and were fed with […] assay medium (seeding medium without tetracycline and G418) with or without the antiviral compounds. […] The antiviral effect was quantified by measuring levels of intracellular viral DNA at day 6 post-induction, by a real time quantitative PCR (Q-PCR) method. […] The reaction was analyzed using a SDS 7000. […] The amount of viral DNA produced in treated cultures was expressed as a percentage of the mock treated samples. […] The cytostatic effect of the various compounds was assessed employing the parent hepatoma cell line HepG2. The effect of the compounds on exponentially growing HepG2 cells was evaluated by means of the MTS method. […]

Row | SMILES | SI selectivity index (TC50/EC50)
1 | Nc1ncnc2c1ncn2CCOCP(O)(O)=S [Compound 6, 9-[2-(thiophosphonomethoxy)ethyl]adenine] | >17
2 | C[C@H](Cn1cnc2c(N)ncnc21)OCP(O)(O)=S [Compound 11, (R)-9-[2-(thiophosphonomethoxy)propyl]adenine] | >77
